Amino acid sequences for entries named in this document (tags omitted).
ATP-dependent Clp protease proteolytic subunit (Bacillus subtilis (strain 168)), P80244, UniProt P80244, whole entry, looked up: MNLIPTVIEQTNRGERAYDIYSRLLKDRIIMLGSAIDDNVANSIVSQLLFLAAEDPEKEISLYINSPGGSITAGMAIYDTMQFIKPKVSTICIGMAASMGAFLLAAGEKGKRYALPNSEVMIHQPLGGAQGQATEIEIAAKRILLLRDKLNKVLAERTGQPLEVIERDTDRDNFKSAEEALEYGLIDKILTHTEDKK

# The list is not random: actives were taken first. Their share in the collection is about 2.5%.
# Apoferritin bind – binds horse apoferritin like a general anesthetic | P02791 | 350,000 compounds, 0.074% hits | Potency, µM (series often up to 77.5 µM), actives largely listed as inhibitors | apoferritin/1-aminoanthracene competitive binding, fluorescence; note: nearly all actives have a fitted effect of over 20% in size
#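 In PBS, apoferritin at 10 uM is loaded with 1-AMA from a 50% saturated solution. After 10 min of compound exposure at ambient temperature, reduced 535 nm fluorescence indicates probe displacement.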
# ClpP mod – qHTS Assay for Activators of ClpP; purified B. subtilis ClpP, FRET peptide cleavage, 20 min; AID 651965, 2013; ATP-dependent Clp protease proteolytic subunit (Bacillus subtilis (strain 168)), P80244; 340,000 compounds, 1.9% hits; Potency, µM (highest dose often 57.5 µM); active = well fitted falling curve with a large enough effect; inconclusive = small, poorly fitted or top-dose-only effect; inactive = no such curve, though single readings can be large or run the other way; note: the source files actives as falling curves though it sought activators and does not explain the sign; nearly all actives have a fitted effect of over 65% in size
#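 ClpP 10 microg/mL final, pH 8 Tris/KCl buffer with BSA, glycerol, Tween-20; compound pinned in; FRET-FV substrate; RT 20 min; Ex320/Em430; ΔFRET vs ADEP 5.8 microM, DMSO, no enzyme.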
# TrxR1 substrate – is turned over as a substrate by rat TrxR1 | O89049 | AID 588456 | 390,000 compounds, 0.01% hits | purified TrxR1 substrate turnover, NADPH consumption readout | Potency, µM (top dose mostly 114 µM); note: nearly all actives have a fitted effect of over 50% in size
#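 Rat TrxR1, dispensed at 90 nM, was prereduced with 400 uM NADPH (final) for 5 min at ~22 deg C, then incubated with compound 15 min before 400 uM selenite. A first-read NADPH fluorescence drop versus no-compound background flagged substrates.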
# rTrxR1 inhibitor – blocks rat thioredoxin reductase 1 | recombinant rTrxR1, NADPH fluorescence consumption, selenite substrate | Potency, µM (doses to about 114 µM), actives largely listed as inhibitors | 390,000 compounds, 1% hits | AID 588453; note: nearly all actives have a fitted effect of over 65% in size
#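 Rat TrxR1 (90 nM in the dispensed reagent) was pre-reduced with 400 uM NADPH for 5 min at room temperature, then incubated with compound for 15 min. After 400 uM selenite was added, NADPH fluorescence (Ex 340/Em 450 nm) was followed for 8 min.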
# miR-21 reporter – miR-21 reporter, rising signal. 340,000 tested, under 10 active. Potency, µM (highest dose often 38.3 µM). HeLa miR-21 FLuc reporter, luciferase, 48 h. AID 2288; active = well fitted rising curve with a large enough effect; inconclusive = small, poorly fitted or top-dose-only effect; inactive = no such curve, though single readings can be large or run the other way;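 further: miR-21 action dims this reporter so a rising signal means less miR-21 action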
#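 HeLa cells endogenously expressing miR-21, stably carrying CMV-driven firefly luciferase with a downstream miR-21 binding site, 2000 cells/well. Titrations up to approximately 40 uM, 48 hours; luciferase luminescence read.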
# A number is an active result; 0 = inactive; ? = inconclusive; - = no result; ! = repeats disagree. Unless noted, calls come from the whole dose curve; as a rule, active = well fitted curve in the direction sought with a large enough effect; inconclusive = small, poorly fitted or top-dose-only effect, or another doubt; inactive = no such curve, though single readings can be large; an effect the other way counts as inactive or inconclusive.
SMILES,Apoferritin bind,ClpP mod,TrxR1 substrate,rTrxR1 inhibitor,miR-21 reporter
COc1ccc2c(c1)CCc1c(C(=O)NCCCn3ccnc3)noc1-2,0,0,0,16µM,0
COc1ccc(C(=O)NCCCn2ccnc2)cc1,0,0,0,0,0
COCCNC(=O)c1noc2c1CCc1cc(OC)ccc1-2,0,0,0,?,0
COCC(C)NC(=O)c1noc2c1CCc1cc(OC)ccc1-2 (stereo not drawn),0,0,0,10µM,0
COc1ccc2c(c1)CCc1c(C(=O)N(C)c3ccccc3)noc1-2,?,0,0,79µM,0
COc1ccc2c(c1)CCc1c(C(=O)NCCN3CCOCC3)noc1-2,0,0,0,40µM,0
Cc1ccc(-c2cc3c(n2-c2ccccc2F)CC(C)(C)CC3=O)cc1,0,0,0,0,0
CCc1ccc(-n2nc(C)c3c(C(=O)Nc4cc(OC)cc(OC)c4)cc(C)nc32)cc1,0,?,0,0,0
CCOc1ccc(CNCc2c(C(=O)O)n(Cc3ccc(OC)cc3)c3ccccc23)cc1,0,0,0,0,0
N#Cc1cnc2c(-c3ccccc3)c(-c3ccccc3)nn2c1N,0,32µM,0,0,0
CCOc1ccccc1NC(=O)N(C)CCc1c(C)nn(CC)c1C,0,0,0,0,0
Cc1nc2nc(-c3ccco3)[nH]n2c(=O)c1Cc1ccccc1,0,28µM,0,0,0
COC(=O)c1ccc2c(=O)n(CCCCCC(=O)N3CCN(c4cccc(C)c4C)CC3)c(=O)[nH]c2c1,0,0,0,0,0
O=C(O)C1Nc2c(O)cc(Cl)c([N+](=O)[O-])c2C2C=CCC12 (stereo not drawn),0,0,0,14µM,0
Cc1ccc2c(c1)C1C=CCC1C(C(=O)O)N2 (stereo not drawn),0,-,-,-,0
COc1cc(OC)c(NC(=O)C(CC(C)C)N2Cc3ccccc3C2=O)cc1Cl (stereo not drawn),0,0,0,0,0
CC(C)Cn1cc(C(=O)NCC2CCCO2)c2c3ccccc3n(C)c2c1=O (stereo not drawn),0,16µM,0,0,0
CCN(CC)CCCNC(=O)c1cn(CC(C)C)c(=O)c2c1c1ccccc1n2C,0,16µM,0,0,0
CCOC(CCNC(=O)c1cn(CC(C)C)c(=O)c2c1c1ccccc1n2C)OCC,0,-,0,0,0
CC(C)Cn1cc(C(=O)NCCCOC(C)C)c2c3ccccc3n(C)c2c1=O,0,28µM,0,0,0
CCCCN(CC)CCCNC(=O)c1cn(CC(C)C)c(=O)c2c1c1ccccc1n2C,0,20µM!,0,0,0
Cn1c2ccccc2c2c(C(=O)NCC3CCCO3)cn(C3CCCC3)c(=O)c21 (stereo not drawn),0,0,0,0,0
COc1cc(C2NC(=O)N(C)C3=C2C(=O)N(c2ccccc2)C3)ccc1O (stereo not drawn),0,0,0,0,0
Cc1nnc(NCc2ccccc2)c2c1nnn2Cc1ccccc1Cl,0,0,0,0,0
COc1ccc2sc(N(Cc3cccnc3)C(=O)C3COc4ccccc4O3)nc2c1 (stereo not drawn),0,0,0,0,0
SMILES,Apoferritin bind,ClpP mod,TrxR1 substrate,rTrxR1 inhibitor,miR-21 reporter
COc1ccc2oc(-c3ccccc3)c(C(=O)O)c2c1,0,0,0,0,0
COc1ccc(C(=O)c2c(-c3ccc(OC)cc3)oc3ccc(-c4ccc(OC)nc4)cc23)cc1,-,16µM,0,0,-
CN(C)C(=O)c1c(-c2ccccc2)oc2ccc(O)cc12,0,20µM,0,0,0
COc1ccc2oc(-c3ccccc3)c(C(N)=O)c2c1,0,32µM,0,0,0
COc1ccc(-c2oc3ccccc3c2C(=O)Oc2ccccc2)cc1,0,0,0,16µM,0
O=C(C[N+]12CN3CN(CN(C3)C1)C2)c1ccc(I)cc1,-,0,0,0,-
CCOC(=O)c1cc(OCc2csc(-c3ccccc3)n2)cc(C(=O)OCC)c1,-,0,0,0,-
Cc1cc(C)c2c(CC(=O)N(Cc3ccc(N(C)C)cc3)Cc3ccco3)coc2c1,0,0,0,0,0
Cc1ccc2c(CC(=O)N(Cc3ccc(Cl)cc3)Cc3ccco3)coc2c1,0,0,0,50µM,0
CC(Oc1ccccc1)C(=O)Nc1cccc(-c2nc3ccccc3[nH]2)c1 (stereo not drawn),0,35µM,0,0,0
Cc1cc(C)cc(OCC(=O)Nc2cccc(-c3nc4ccccc4[nH]3)c2)c1,0,0,0,0,0
O=C(COc1ccccc1)Nc1cccc(-c2nc3cc4ccccc4cc3[nH]2)c1,0,6.3µM,0,0,0
CN(C)c1ccc(/C=C/c2cnnc3ccccc23)cc1,-,0,0,0,-
CCOc1ccc(NC(=O)c2c(NC(=O)c3ccccc3Br)sc3c2CCC(C)C3)cc1 (stereo not drawn),0,?,0,0,0
COC(=O)c1cccc(S(=O)(=O)N(Cc2ccco2)Cc2cc3cc(OC)c(OC)cc3[nH]c2=O)c1,0,28µM,0,0,0
CCCC(c1nnnn1CC(=O)OCC)N(Cc1cc2c(C)cc(C)cc2[nH]c1=O)C1CCCC1 (stereo not drawn),0,?,0,0,0
CCCC(c1nnnn1CC(=O)OCC)N(Cc1cc2ccc(C)cc2[nH]c1=O)C1CCCC1 (stereo not drawn),0,18µM,0,0,0
CCOc1ccc(-c2c(C)nn3c(C)c(C(=O)Nc4ccccc4C(=O)OC)cnc23)cc1OCC,0,0,0,0,0
CN1c2ccccc2Oc2nnc(Cl)cc21,0,-,0,0,0
CCN(CC)CCOc1cc2c(nn1)Oc1ccccc1N2C,0,13µM,0,0,0
CCC(c1nnnn1Cc1ccccc1)N(Cc1ccco1)Cc1cc2cc(OC)ccc2[nH]c1=O (stereo not drawn),0,0,0,0,0
CC(C)C(c1nnnn1Cc1ccccc1)N(CCCO)Cc1cc2cc3c(cc2[nH]c1=O)OCO3 (stereo not drawn),0,32µM,0,0,0
CCC(c1nnnn1Cc1ccc(OC)cc1)N(CCCO)Cc1cc2cc3c(cc2[nH]c1=O)OCO3 (stereo not drawn),0,22µM,0,?,0
COc1cc(-c2noc(-c3ccc(NCc4ccco4)c([N+](=O)[O-])c3)n2)cc(OC)c1OC,0,0,0,0,0
CC1(C)CC(=O)c2cc(-c3nc(-c4ccc(Cl)cc4)cs3)c(=O)n(-c3ccc(Cl)cc3)c2C1,0,0,0,0,0
COc1ccc(C)cc1Nc1n[n+](-c2ccccc2)c(-c2ccc(N(C)C)cc2)s1,0,0,0,8.9µM,0
Cc1nc(Oc2ccccc2)c2ccccc2n1,0,0,0,0,0
c1ccc(Oc2c3ccccc3nc3ccccc23)cc1,0,0,0,8.9µM,0
O=C(Cn1ccc2cc(S(=O)(=O)N3CCCCC3)ccc21)NCCc1ccccc1Cl,0,0,0,0,0

# Compound activity as filed in PubChem BioAssay.
